Experimental data: PubChem BioAssay AID651787 (The Scripps Research Institute Molecular Screening Center, 2012)
The entries are a selection whose mix differs from that of the whole data set. Active and inactive are the calls of the source.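 How the source made its calls: active means activation above the run cutoff, the mean activation over all tested wells plus 3 SD (cut at about 12% in these data); inactive means the rest.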

Assay: nonselective calcium mobilization agonists, CHO-Ga16 cells, counter-screen for hTAAR1 agonist project, cell-based, fluorescence, CHO-Ga16 parental line (AID 651787)
Settings: Fluo-8 calcium fluorescence, at 3 µM, hits give high values, normalized to maximal ATP response, DMSO zero
Summary of the method: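 Test system: CHO-Gα16 parental cells without hTAAR1. Amount: 750 cells in each well. Incubation: 17-24 h seeding, dye 75 min 37 °C, 30 min RT. Measured by: Fluo-8 calcium-dye fluorescence. Evaluation: % activation from peak-to-basal fluorescence ratio, DMSO to ATP scale. Control set: DMSO (0%) and EC100 ATP (100%).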

| SMILES | activation |
| --- | --- |
| CP(=O)(OC12CC3CC(CC(C3)C1)C2)OC12CC3CC(CC(C3)C1)C2 | active: 14.7% |
